From US20070009484A1, “Compositions and methods involving MDA-7 for the treatment of cancer” (Board of Regents, The University of Texas System, priority 2005, published 2007)

Legend:
Type in all cases: cell-based, human
COX-2 = test: Western blotting and densitometry
p-Akt = test: Western blotting and densitometry
β-catenin = test: Western blotting and densitometry
Akt = test: Western blotting and densitometry
MCF-7 cells = test: Cell death by trypan blue staining; conditions: HER2 negative; 3 days; 1 μg/ml Herceptin, 2000 vp/cell
Procedure: Apoptosis was measured by TUNEL and Annexin V assays. […] Cell viability was determined by trypan-blue exclusion assay.

MDA-MB231 cells = test: Cell viability by trypan blue exclusion assay; conditions: 30 ng/ml, 96 h
Procedure: (§1) MDA-MB231 and MDA-MB453 breast cancer lines were obtained from the America Type Culture Collection (ATCC, Manassas, Va.) and were maintained in DMEM (Hyclone, Inc., Logan, Utah) supplemented with 10% fetal bovine serum (Life Technologies, Inc.), 100 units/ml penicillin, 100 μg/ml streptomycin, 2 mM L-glutamine, and HEPES buffer (Life Technologies, Inc., Grand Island, N.Y.). The cells were screened routinely to verify lack of mycoplasma contamination and were used in the log phase of growth. Monoclonal anti-IL-24 antibody was prepared as described previously (Caudell et al., 2002). Rabbit phospho-Stat3 (Tyr705) antibody was purchased from Cell Signaling Technology Inc. (Beverly, Mass.), β-Actin monoclonal antibody and terminal deoxynucleotidyl transferase-mediated dUTP-biotin nick-end labeling (TUNEL) kits were purchased from Oncogene Research Products (San Diego, Calif.), and all other primary and secondary antibodies were purchased from Santa Cruz Biotechnology (Santa Cruz, Calif.). Cell viability was analyzed by trypan blue exclusion assay. Cells were trypsinized and an aliquot suspended 1:1 volume with 0.4% trypan blue. Total cell numbers and cell viability counts were assessed using a hemocytometer by light microscopy (Chada et al., 2005).
(§2) Full-length mda-7 cDNA was cloned into pCEP4 FLAG vector (Invitrogen, San Diego, Calif.) containing the CMV promoter. […]

MDA-MB453 cells = test: Cell viability by trypan blue exclusion assay; conditions: 30 ng/ml, 96 h
Procedure: as §1, §2

Cc1ccc(-c2cc(C(F)(F)F)nn2-c2ccc(S(N)(=O)=O)cc2)cc1 [Celecoxib, 4-[5-(4-methylphenyl)-3-(trifluoromethyl)-1H-pyrazol-1-yl]benzenesulfonamide]
relative densitometry number for COX-2 (COX-2; HER2+ (MCF7/Her18) cells): 0.53
relative densitometry number for COX-2 (COX-2; HER2- (MDA-MB-436) cells): 0.74
relative densitometry number for pAkt (p-Akt; HER2+ (MCF7/Her18) cells): 0.61
relative densitometry number for pAkt (p-Akt; HER2- (MDA-MB-436) cells): 0.67
relative densitometry number for β-catenin (β-catenin; HER2+ (MCF7/Her18) cells): 0.78
relative densitometry number for β-catenin (β-catenin; HER2- (MDA-MB-436) cells): 0.82
relative densitometry number for Akt (Akt; HER2+ (MCF7/Her18) cells): 1.01
relative densitometry number for Akt (Akt; HER2- (MDA-MB-436) cells): 0.72

Herceptin: humanized antibody developed as an antagonist for the human epidermal growth factor receptor-2 (HER-2)
cell death (MCF-7 cells): resistant to Herceptin

B1: IL-20: IL-10 family cytokine (protein, UniProt Q9NYY1 25-176, looked up)
Interleukin-20: LKTLNLGSCVIATNLQEIRNGFSEIRGSVQAKDGNIDIRILRRTESLQDTKPANRCCLLRHLLRLYLDRVFKNYQTPDHYTLRKISSLANSFLTIKKDLRLCHAHMTCHCGEEAMKKYSQILSHFEKLEPQAAVVKALGELDILLQWMEETE
cell death (cytotoxicity) by cytokine protein (MDA-MB231 cells): none of these induced cell death above background levels
cell death (cytotoxicity) by cytokine protein (MDA-MB453 cells): none of these induced cell death above background levels
